Our source for the Activity values is ChEMBL document CHEMBL5579883, “Discovery of Novel Neo-Clerodane Derivatives as Potent Dual-Functional Antiosteoporosis Agents through Targeting Peroxisome Proliferator-Activated Receptor-γ” (J Med Chem, 2024).

By UniProt entry, the sequences of proteins in these tests, tags left out.
UniProt O75376, whole entry: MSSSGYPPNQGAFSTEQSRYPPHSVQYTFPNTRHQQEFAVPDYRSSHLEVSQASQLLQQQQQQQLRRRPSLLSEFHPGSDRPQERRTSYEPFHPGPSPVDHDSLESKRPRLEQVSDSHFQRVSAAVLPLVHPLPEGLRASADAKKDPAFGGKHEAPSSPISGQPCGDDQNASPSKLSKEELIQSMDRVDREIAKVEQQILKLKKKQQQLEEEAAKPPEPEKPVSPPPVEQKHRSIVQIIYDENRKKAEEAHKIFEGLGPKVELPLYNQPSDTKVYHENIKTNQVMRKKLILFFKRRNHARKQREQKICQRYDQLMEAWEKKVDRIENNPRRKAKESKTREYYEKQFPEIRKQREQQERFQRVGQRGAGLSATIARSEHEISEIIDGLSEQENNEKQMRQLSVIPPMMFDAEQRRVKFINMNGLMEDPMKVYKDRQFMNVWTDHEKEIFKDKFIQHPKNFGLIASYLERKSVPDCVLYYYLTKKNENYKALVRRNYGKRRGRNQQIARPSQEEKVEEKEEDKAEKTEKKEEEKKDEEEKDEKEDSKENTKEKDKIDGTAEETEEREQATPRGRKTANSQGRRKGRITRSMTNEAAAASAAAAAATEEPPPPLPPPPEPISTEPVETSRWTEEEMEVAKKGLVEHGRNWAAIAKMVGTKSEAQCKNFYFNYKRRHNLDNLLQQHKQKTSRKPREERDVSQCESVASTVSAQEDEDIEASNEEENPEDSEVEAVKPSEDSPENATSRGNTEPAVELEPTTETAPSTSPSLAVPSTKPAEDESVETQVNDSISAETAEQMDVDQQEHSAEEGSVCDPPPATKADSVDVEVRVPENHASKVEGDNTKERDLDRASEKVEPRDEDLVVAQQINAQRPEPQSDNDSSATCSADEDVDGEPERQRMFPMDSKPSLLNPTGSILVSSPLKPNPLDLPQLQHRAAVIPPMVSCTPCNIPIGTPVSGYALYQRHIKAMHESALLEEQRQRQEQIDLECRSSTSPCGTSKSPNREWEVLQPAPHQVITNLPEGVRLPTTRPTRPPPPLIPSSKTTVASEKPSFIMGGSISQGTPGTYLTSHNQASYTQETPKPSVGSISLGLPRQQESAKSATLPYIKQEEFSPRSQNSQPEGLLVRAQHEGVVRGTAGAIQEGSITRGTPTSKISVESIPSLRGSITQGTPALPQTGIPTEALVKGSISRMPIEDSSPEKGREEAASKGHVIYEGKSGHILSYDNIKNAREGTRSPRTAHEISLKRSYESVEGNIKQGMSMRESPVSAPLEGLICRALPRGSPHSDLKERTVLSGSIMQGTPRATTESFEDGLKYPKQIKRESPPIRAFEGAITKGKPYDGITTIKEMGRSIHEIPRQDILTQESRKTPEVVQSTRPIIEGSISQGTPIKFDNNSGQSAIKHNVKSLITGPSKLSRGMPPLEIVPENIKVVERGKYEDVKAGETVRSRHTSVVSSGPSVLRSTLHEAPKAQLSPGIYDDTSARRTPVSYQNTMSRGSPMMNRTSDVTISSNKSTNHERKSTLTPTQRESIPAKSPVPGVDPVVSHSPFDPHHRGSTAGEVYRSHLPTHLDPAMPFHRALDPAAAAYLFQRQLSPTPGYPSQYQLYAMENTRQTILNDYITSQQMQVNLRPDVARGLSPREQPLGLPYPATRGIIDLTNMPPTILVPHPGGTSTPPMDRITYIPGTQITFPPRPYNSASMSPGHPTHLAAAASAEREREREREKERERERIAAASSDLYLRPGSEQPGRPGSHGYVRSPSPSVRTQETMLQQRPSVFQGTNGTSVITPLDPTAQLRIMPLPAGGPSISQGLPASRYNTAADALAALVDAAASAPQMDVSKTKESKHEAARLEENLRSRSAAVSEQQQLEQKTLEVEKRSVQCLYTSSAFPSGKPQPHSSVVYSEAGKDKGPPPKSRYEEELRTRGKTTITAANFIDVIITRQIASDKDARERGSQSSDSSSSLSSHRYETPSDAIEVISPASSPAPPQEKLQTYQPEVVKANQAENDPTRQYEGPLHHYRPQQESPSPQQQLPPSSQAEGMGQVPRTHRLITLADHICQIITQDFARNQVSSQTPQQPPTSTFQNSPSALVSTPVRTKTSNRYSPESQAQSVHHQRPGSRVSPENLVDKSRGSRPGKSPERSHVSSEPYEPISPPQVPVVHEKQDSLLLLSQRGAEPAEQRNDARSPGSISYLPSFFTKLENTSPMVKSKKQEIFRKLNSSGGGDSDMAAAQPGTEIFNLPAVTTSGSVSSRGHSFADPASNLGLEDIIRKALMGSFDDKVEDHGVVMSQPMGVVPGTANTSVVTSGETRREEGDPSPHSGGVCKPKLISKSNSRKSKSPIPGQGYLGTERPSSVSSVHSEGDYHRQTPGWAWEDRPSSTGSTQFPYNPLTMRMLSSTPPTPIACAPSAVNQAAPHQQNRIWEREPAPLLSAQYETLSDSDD

In test [1] the target is T1, Peroxisome proliferator-activated receptor gamma coactivator 1-alpha (Homo sapiens) (UniProt Q9UBK2).
T1 sequence (whole entry): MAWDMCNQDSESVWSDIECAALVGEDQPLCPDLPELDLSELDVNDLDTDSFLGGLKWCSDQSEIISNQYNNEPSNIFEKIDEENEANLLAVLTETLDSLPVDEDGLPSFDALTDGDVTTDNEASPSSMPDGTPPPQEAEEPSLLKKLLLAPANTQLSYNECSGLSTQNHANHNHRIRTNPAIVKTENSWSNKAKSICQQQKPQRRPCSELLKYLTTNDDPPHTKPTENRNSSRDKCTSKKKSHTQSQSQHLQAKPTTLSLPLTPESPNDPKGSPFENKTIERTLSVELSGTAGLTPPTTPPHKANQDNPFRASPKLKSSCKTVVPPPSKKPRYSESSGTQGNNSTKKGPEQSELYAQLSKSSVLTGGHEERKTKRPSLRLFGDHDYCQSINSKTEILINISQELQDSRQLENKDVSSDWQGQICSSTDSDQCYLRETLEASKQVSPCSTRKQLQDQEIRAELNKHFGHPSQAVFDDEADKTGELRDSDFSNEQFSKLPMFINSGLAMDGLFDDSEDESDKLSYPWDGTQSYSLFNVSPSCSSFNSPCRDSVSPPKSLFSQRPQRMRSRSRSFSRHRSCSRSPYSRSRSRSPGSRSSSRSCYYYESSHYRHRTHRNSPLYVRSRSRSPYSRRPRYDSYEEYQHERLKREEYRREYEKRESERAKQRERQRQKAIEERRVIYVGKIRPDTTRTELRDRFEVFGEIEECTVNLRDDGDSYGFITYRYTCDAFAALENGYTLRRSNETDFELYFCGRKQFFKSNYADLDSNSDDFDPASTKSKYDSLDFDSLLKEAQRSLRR
Kind of test: Effect on PGC-1 alpha recruitment (unknown origin) incubated for 24 hrs at 10 uM by TR-FRET assay. (In TR-FRET formats the signal depends on donor and acceptor labels being close together.)

Test [2] has as its target Nuclear receptor corepressor 1 (Homo sapiens) (UniProt O75376). Nature of the test: Effect on NCoR recruitment (unknown origin) at 10 uM incubated for 24 hrs by TR-FRET assay.

Each structure is given as a SMILES string. Activity calls are given as the source filed them. The calls are words filed in the database; no cut-off is given here.

For `C[C@@H]1C[C@H](O)[C@@]2(COC(=O)c3ccc(C(F)(F)F)cc3)C(=O)CCC[C@@H]2[C@@]1(C)CCC1=CC(=O)OC1`, the outcome in test [1] and in test [2] was inactive.
